Here are results for one compound from patent US10851110B2, “Heterocyclic inhibitors of PTPN11” (priority 2016, dated 2020).

This assay relates to phospho-ERK1/2. The assay is described as follows: pERK AlphaScreen Protocol. It counts as cell-based. Conditions: KYSE-520 cells, 2 hr, phospho-ERK1/2 AlphaScreen SureFire. On the procedure: KYSE-520 cells (10 k cells/well) were grown in 384-well plate in 20 uL of medium (RPMI-1640, without phenol red, containing 10% FBS) at 37° C. with 5% CO2 overnight. DMSO (control) or increasing concentrations of compounds were diluted in medium, added to the 384-well plate (5 uL/well, final DMSO concentration of 1%), and cells were then incubated with compounds for 2 hr. Phospho-ERK levels were measured using phospho-ERK1/2 AlphaScreen SureFire (PerkinElmer, TGRESB10K) following manufacturer's recommendations. Dose-response curves were analyzed using IC50 regression curve fitting (GeneData Screener). Curves were normalized to a high control without inhibitor (DMSO only), and low control (1 μM selumetinib).
A general note: Bead proximity is the source of the signal in Alpha formats.

Broadly, the IC50 is the concentration that inhibits the measured activity by half. Regarding `N[C@@H]1CCCC12CCN(c1cnc3c(-c4ccncc4Cl)n[nH]c3n1)CC2` [Example 56, (R)-8-(3-(3-chloro-pyridin-4-yl)-1H-pyrazolo[3,4-b]-pyrazin-6-yl)-8-azaspiro[4.5]decan-1-amine], the concentration for half-maximal inhibition (IC50) is 200 nM.
